Laboratory results from patent US11814447B2, “Peptide ligands for binding to EphA2” (BICYCLERD LIMITED, priority 2018, dated 2023).
Read-outs that look alike come from different tables or passages of the source.

Protein sequences, listed by entry. Tags and fused reporters are not part of them. Residues count along the entry.
UniProt P29317, 24-537 limits assumed: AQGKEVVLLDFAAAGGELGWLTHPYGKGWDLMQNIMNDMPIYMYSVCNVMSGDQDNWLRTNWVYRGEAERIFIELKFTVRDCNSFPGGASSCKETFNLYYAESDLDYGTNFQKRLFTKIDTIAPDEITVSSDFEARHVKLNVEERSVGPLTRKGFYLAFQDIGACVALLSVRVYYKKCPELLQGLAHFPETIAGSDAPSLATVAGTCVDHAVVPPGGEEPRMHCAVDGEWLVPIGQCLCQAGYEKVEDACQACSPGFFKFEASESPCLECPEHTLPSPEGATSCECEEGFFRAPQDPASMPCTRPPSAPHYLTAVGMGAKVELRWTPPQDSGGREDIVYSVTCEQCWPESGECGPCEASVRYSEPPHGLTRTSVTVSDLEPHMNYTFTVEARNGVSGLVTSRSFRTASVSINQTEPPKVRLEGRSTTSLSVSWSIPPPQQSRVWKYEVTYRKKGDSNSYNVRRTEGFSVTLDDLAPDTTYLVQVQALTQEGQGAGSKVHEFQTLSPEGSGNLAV
UniProt Q03145, 26-538 limits assumed: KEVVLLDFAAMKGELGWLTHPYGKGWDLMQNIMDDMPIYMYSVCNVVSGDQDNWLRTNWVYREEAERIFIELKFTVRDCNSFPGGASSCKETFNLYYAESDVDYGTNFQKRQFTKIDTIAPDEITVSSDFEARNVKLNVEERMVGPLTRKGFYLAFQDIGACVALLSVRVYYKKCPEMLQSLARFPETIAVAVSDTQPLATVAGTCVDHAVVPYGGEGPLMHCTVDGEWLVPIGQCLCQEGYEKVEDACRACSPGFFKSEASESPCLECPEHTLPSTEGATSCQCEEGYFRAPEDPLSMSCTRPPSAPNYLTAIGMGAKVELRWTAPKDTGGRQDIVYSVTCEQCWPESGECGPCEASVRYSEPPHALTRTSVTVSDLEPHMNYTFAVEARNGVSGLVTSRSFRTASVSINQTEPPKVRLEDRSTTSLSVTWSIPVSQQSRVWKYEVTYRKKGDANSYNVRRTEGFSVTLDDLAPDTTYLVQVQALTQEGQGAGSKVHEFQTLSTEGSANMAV

Experiments:
[1] = target: T1, Human EphA2 (Homo sapiens, UniProt P29317)
[2] = target: T1, Human EphA2; experiment: Fluorescence polarisation direct binding assay; parameters: EphA2 (Ecto); polyHis (C); settings: read-out: KD, nM ± 95% CI Human EphA2
[3] = target: T2, Mouse EphA2 (Mus musculus, UniProt Q03145); experiment: Fluorescence polarisation direct binding assay; settings: Table 7; read-out: KD, nM ± 95% CI Mouse EphA2
T2 construct: EphA2 (Ecto); Fc fusion (R&D 639-A2) OR C-terminal polyHis (Sino Biological 50586-M08H); purchased R&D Systems or Sino Biological 639-A2 or 50586-M08H

[4] = read-out: measured affinity (Ki) to EphA2, Examples 1-6 and Reference Examples 1-2, species and fluorescent peptide not stated

For “(β-Ala)-Sar10-ACWAPFWCAVNRPGC [Compound 303]”, the Ki ([1]; read-out: Ki, nM ± 95% CI Human EphA2 Fluorescent peptide Compound 18, Table 9, Ala scan peptides, fluorescent peptide Compound 18) was over 1000 nM.

Work on “AF488-(β-Ala)-Sar10-ACPWAPFWCAVNRPGC [Compound 307]” yielded a Kd ([2]; Table 10, Ala scan peptides) of over 1000 nM.

Work on “AF488-(β-Ala)-Sar10-H(D-Asp)(C5g)P-C(Aib)(1Nal)G(Aib)F(1Nal)CP(tBuGly)NR(Aib)(D-Asp)C [Compound 146]” yielded a Kd ([2]; Table 7) of 2.19 nM.

For “AF488-(β-Ala)-Sar10-H(D-Asp)(C5g)P-CP(1Nal)G(Aib)F(1Nal)CP(tBuGly)N(HArg)P(D-Asp)C [Compound 147]”, the Kd [3] was 3.44 ± 1.31 nM and the Kd ([2]; Table 7) was 1.07 ± 0.9 nM.

“AF488-(β-Ala)-Sar10-H(D-Asp)VP-C(Aib)(1Nal)G(Aib)F(1Nal)CP(tBuGly)N(HArg)P(D-Asp)C [Compound 140]” gave a Kd [3] of 4.55 ± 1.04 nM and a Kd ([2]; Table 7) of 2.05 ± 0.62 nM.

“AF488-(β-Ala)-Sar10-H(D-Asp)VP-C(Aib)(1Nal)G(Aib)F(1Nal)CP(tBuGly)NR(Aib)(D-Asp)C [Compound 141]” showed a Kd [3] of 6.5 ± 0.63 nM and a Kd ([2]; Table 7) of 2.65 ± 0.64 nM.

In the case of “AF488-(β-Ala)-Sar10-H(D-Asp)VP-CP(1Nal)G(Aib)F(1Nal)CP(tBuGly)N(HArg)P(D-Asp)C [Compound 143]”, the Kd [3] is reported as 4.69 ± 4.15 nM and the Kd ([2]; Table 7) is reported as 1.4 ± 1.46 nM.

For “AF488-(β-Ala)-Sar10-H(D-Asp)VP-CP(1Nal)G(Aib)F(1Nal)CP(tBuGly)NR(Aib)(D-Asp)C [Compound 145]”, the Kd [3] was 3.8 ± 0.55 nM and the Kd ([2]; Table 7) was 2.17 ± 2.08 nM.

Work on “AF488-(β-Ala)-Sar10-H(D-Asp)VP-CP(1Nal)G(Aib)F(1Nal)CP(tBuGly)NR(Aib)GC [Compound 144]” yielded a Kd [3] of 2.56 nM and a Kd ([2]; Table 7) of 1.04 nM.

“AF488-(β-Ala)-Sar10-H(D-Asp)VPCP(1Nal)A(Aib)F(1Nal)CA(tBuGly)NR(Aib)(D-Asp)C [Compound 308]” was tested, and the Kd ([2]; Table 10, Ala scan peptides) was over 2000 nM.

“AF488-(β-Ala)-Sar10-H(D-Asp)VPCPWGPFWCPVNRPGCA [Compound 139]” was tested, and the Kd [3] was 0.8 ± 0.54 nM and the Kd ([2]; Table 7) was 0.31 ± 0.18 nM.

“Sar2-ACP(1Nal)G(Aib)FWCP(tBuGly)NR(Aib)GC [Compound 137]” gave a Ki ([1]; read-out: Ki, nM ± 95% CI Human EphA2 Fluorescent Peptide Compound 18, Table 6, fluorescent peptide Compound 18) of 20 nM and a Ki ([1]; read-out: Ki, nM ± 95% CI Human EphA2 Fluorescent Peptide Compound 66, Table 6, fluorescent peptide Compound 66) of 18 nM.

Work on “[Ac][B-Ala][Sar]10H[dD]VPCPWGPFW[Dap]PVNRPG[Dap] [Example 2]” yielded a Ki [1, 4] of 604 nM.

For “[Ac][B-Ala][Sar]10H[dD]VP[Dap]PWGPFWCPVNRPG[Dap] [Example 3]”, the Ki [1, 4] was 31.5 nM.

Work on “[B-Ala][Sar]10H[dD]VP [Dap][Aib][Mal]G[Aib]F [1Nal]CP [tBuGly]N[HArg]P [dD][Dap] [Example 6]” yielded a Ki [1, 4] of 17 nM.

With “[B-Ala][Sar]10H[dD]VPC[Aib][Mal]G[Aib]F[1Nal][Dap]P[tBuGly]N[HArg]P[dD][Dap] [Example 5]” the Ki [1, 4] was 425 nM.

“[B-Ala][Sar]10H[dD]VP[Dap][Aib][Mal]G[Aib]F[1Nal][Dap]P[tBuGly]N[HArg]P[dD]C [Example 4]” gave a Ki [1, 4] of 640 nM.
